# Key:
# Sequences of proteins named here, by UniProt entry; tags and fusion partners are left off. A line that says so, or that is headed by a name, gives the form on record, which may keep a tag or linker.
# UniProt Q9BUB5, other isoform, or with tags, fused parts or gaps T344D: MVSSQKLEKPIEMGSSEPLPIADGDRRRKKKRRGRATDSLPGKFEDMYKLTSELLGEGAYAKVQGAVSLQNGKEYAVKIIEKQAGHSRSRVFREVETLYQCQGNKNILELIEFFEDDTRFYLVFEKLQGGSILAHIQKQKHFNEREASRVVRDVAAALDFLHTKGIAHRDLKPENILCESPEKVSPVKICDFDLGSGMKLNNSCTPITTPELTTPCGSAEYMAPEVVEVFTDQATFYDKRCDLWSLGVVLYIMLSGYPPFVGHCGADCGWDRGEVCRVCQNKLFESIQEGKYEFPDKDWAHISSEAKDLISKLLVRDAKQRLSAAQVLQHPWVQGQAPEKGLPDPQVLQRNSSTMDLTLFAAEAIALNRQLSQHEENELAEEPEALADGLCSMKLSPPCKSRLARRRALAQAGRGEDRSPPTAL
# [1] = target: human full-length MKNK1 (GST fusion, T344D) (Homo sapiens (Human), UniProt Q9BUB5, T344D); assay: MKNK1 kinase high ATP assay (TR-FRET, 2 mM ATP); assay type: biochemical; settings: 15 min preincubation
# Experimental: MKNK1 Kinase High ATP Assay
# MKNK1-inhibitory activity at high ATP of compounds of the present invention after their preincubation with MKNK1 was quantified employing the TR-FRET-based MKNK1 high ATP assay as described in the following paragraphs.
# (§1) A recombinant fusion protein of Glutathione-S-Transferase (GST, N-terminally) and human full-length MKNK1 (amino acids 1-424 and T344D of accession number BAA 19885.1), expressed in insect cells using baculovirus expression system and purified via glutathione sepharose affinity chromatography, was purchased from Carna Biosciences (product no 02-145) and used as enzyme. As substrate for the kinase reaction the biotinylated peptide biotin-Ahx-[…] (C-terminus in amide form) was used, which can be purchased e.g. from the company Biosyntan (Berlin-Buch, Germany).
# (§2) For the assay 50 nL of a 100 fold concentrated solution of the test compound in DMSO was pipetted into a black low volume 384 well microtiter plate (Greiner Bio-One, Frickenhausen, Germany), 2 μL of a solution of MKNK1 in aqueous assay buffer [50 mM HEPES pH 7.5, 5 mM magnesium chloride, 1.0 mM dithiothreitol, 0.005% (v/v) Nonidet-P40 (Sigma)] was added and the mixture was incubated for 15 min at 22° C. to allow pre-binding of the test compounds to the enzyme before the start of the kinase reaction. Then the kinase reaction was started by the addition of 3 μL of a solution of adenosine-tri-phosphate (ATP, 3.3 mM=>final conc. in the 5 μL assay volume is 2 mM) and substrate (0.1 μM=>final conc. in the 5 μL assay volume is 0.06 μM) in assay buffer and the resulting mixture was incubated for a reaction time of 30 min at 22° C. The concentration of MKNK1 was adjusted depending of the activity of the enzyme lot and was chosen appropriate to have the assay in the linear range, typical concentrations were in the range of 0.003 μg/mL. The reaction was stopped by the addition of 5 μL of a solution of TR-FRET detection reagents (5 nM streptavidine-XL665 [Cisbio Bioassays, Codolet, France] and 1 nM anti-ribosomal protein S6 (pSer236)-antibody from Invitrogen [#44921G] and 1 nM LANCE EU-W1024 labeled ProteinG [Perkin-Elmer, product no. AD0071]) in an aqueous EDTA-solution (100 mM EDTA, 0.1% (w/v) bovine serum albumin in 50 mM HEPES pH 7.5).
# (§3) The resulting mixture was incubated for 1 h at 22° C. to allow the formation of complex between the phosphorylated biotinylated peptide and the detection reagents. Subsequently the amount of phosphorylated substrate was evaluated by measurement of the resonance energy transfer from the Eu-chelate to the streptavidine-XL. Therefore, the fluorescence emissions at 620 nm and 665 nm after excitation at 350 nm were measured in a TR-FRET reader, e.g. a Rubystar (BMG Labtechnologies, Offenburg, Germany) or a Viewlux (Perkin-Elmer). The ratio of the emissions at 665 nm and at 622 nm was taken as the measure for the amount of phosphorylated substrate.
# [2] = target: human full-lengt MKNK1 (GST fusion, T344D) (Homo sapiens (Human), UniProt Q9BUB5, T344D); assay: MKNK1 kinase assay (TR-FRET, 10 μM ATP); assay type: biochemical; settings: 15 min preincubation
# Source text: MKNK1-inhibitory activity of compounds of the present invention was quantified employing the MKNK1 TR-FRET assay as described in the following paragraphs.
# as §1, with “human full-lengt” for “human full-length”, “was used” for “was used,”, “e.g. form” for “e.g. from”
# as §2, with “16.7 μM=>final” for “3.3 mM=>final”, “10 μM)” for “2 mM)”, “45” for “30”, “0.05 μg/ml.” for “0.003 μg/mL.”
# as §3
IC50 [1],IC50 [2],SMILES
8 nM,4 nM,"O=C(Nc1ccc2ncc(-c3cc4ccccc4o3)n2n1)C(O)C1CCOCC1 (stereo not shown) [Example 5, N-[3-(1-Benzofuran-2-yl)imidazo[1,2-b]pyridazin-6-yl]-2-hydroxy-2-(tetrahydro-2H-pyran-4-yl)acetamide]"
11 nM,5 nM,"O=C(Cc1cccnc1)Nc1ccc2ncc(-c3cc4ccccc4o3)n2n1 [Example 7, N-[3-(1-Benzofuran-2-yl)imidazo[1,2-b]pyridazin-6-yl]-2-(pyridin-3-yl)acetamide]"
11 nM,5 nM,"O=C(Nc1ccc2ncc(-c3cc4ccccc4o3)n2n1)C(O)C1CC1 (stereo not shown) [Example 12, N-[3-(1-Benzofuran-2-yl)imidazo[1,2-b]pyridazin-6-yl]-2-cyclopropyl-2-hydroxyacetamide]"
10 nM,10 nM,"N#Cc1ccc(CC(=O)Nc2ccc3ncc(-c4cc5ccccc5o4)n3n2)cc1 [Example 18, N-[3-(1-Benzofuran-2-yl)imidazo[1,2-b]pyridazin-6-yl]-2-(4-cyanophenyl)-acetamide]"
15 nM,6 nM,"Cn1cc(CCC(=O)Nc2ccc3ncc(-c4cc5ccccc5o4)n3n2)cn1 [Example 20, N-[3-(1-benzofuran-2-yl)imidazo[1,2-b]pyridazin-6-yl]-3-(1-methyl-1H-pyrazol-4-yl)propanamide]"
35 nM,31 nM,"O=C(Cc1ccccc1C(F)(F)F)Nc1ccc2ncc(-c3cc4ccccc4o3)n2n1 [Example 25, N-[3-(1-benzofuran-2-yl)imidazo[1,2-b]pyridazin-6-yl]-2-[2-(trifluoromethyl)phenyl]acetamide]"
10 nM,14 nM,"N#CCC(=O)Nc1ccc2ncc(-c3cc4ccccc4o3)n2n1 [Example 26, N-[3-(1-benzofuran-2-yl)imidazo[1,2-b]pyridazin-6-yl]-2-cyanoacetamide]"
35 nM,25 nM,"O=C(Nc1ccc2ncc(-c3cc4ccccc4o3)n2n1)C1CCOCC1 [Example 27, N-[3-(1-benzofuran-2-yl)imidazo[1,2-b]pyridazin-6-yl]tetrahydro-2H-pyran-4-carboxamide]"
28 nM,17 nM,"CN(C)CC(=O)Nc1ccc2ncc(-c3cc4ccccc4o3)n2n1 [Example 28, N-[3-(1-benzofuran-2-yl)imidazo[1,2-b]pyridazin-6-yl]-N^2,N^2-dimethylglycinamide]"
67 nM,44 nM,"O=C(CCc1ccc(F)cc1)Nc1ccc2ncc(-c3cc4ccccc4o3)n2n1 [Example 29, N-[3-(1-benzofuran-2-yl)imidazo[1,2-b]pyridazin-6-yl]-3-(4-fluorophenyl)propanamide]"
28 nM,30 nM,"O=C(CN1CCCC1)Nc1ccc2ncc(-c3cc4ccccc4o3)n2n1 [Example 30, N-[3-(1-benzofuran-2-yl)imidazo[1,2-b]pyridazin-6-yl]-2-(pyrrolidin-1-yl)acetamide]"
